Target: Acetylcholinesterase (Homo sapiens, UniProt P22303)
Experiment: Inhibition of AChE assessed as hydrolysis of acetylcholine preincubated for 15 mins measured after 15 mins by colorimetric Ellman assay

By UniProt entry, the sequences of proteins in these tests, tags left out. Where a name states a change or a piece, a line headed by the entry shows the natural chain unless it says otherwise.
UniProt P22303: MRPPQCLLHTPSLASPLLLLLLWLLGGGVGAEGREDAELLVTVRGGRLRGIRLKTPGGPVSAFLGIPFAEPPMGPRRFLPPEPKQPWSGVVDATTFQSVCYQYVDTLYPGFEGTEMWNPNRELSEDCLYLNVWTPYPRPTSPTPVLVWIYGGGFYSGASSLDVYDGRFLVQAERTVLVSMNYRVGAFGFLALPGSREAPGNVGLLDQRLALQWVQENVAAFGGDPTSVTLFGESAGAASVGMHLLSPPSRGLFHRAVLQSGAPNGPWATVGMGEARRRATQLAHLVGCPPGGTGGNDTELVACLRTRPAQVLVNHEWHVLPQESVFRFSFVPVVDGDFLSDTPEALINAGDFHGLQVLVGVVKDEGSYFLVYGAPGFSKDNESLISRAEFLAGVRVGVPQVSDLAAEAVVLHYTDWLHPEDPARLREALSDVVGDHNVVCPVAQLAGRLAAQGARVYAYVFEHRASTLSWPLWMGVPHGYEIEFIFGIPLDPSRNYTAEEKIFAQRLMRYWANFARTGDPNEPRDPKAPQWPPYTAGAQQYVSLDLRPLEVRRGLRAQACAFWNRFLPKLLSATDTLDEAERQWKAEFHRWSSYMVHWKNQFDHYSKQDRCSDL

COc1ccc2cc3[n+](cc2c1OC)CCc1cc2c(cc1-3)OCO2 [BERBERINE CHLORIDE]
IC50: 0.04 µM
